# Yeast mating assay 1: variants of the scFv Ab-14

From the AlphaSeq antibody data of Engelhart et al. 2022 (doi:10.1038/s41597-022-01779-4), copy in the FLAb collection.

Target: peptide PDVDLGDISGINAS, taken from heptad repeat 2 (HR2) of SARS-CoV-2 spike.

Ab-14 is the parent antibody, in scFv form: VH, then the linker GGGGSGGGGSGGGGS, then VL. The heavy chain is unchanged in all variants.
VH: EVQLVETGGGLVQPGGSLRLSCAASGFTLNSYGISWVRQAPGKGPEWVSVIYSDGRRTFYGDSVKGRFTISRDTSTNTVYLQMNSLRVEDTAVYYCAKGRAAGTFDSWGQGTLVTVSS
VL: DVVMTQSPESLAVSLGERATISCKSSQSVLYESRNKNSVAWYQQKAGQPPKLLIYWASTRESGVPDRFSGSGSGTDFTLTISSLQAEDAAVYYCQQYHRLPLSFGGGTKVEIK

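Phage display of a naive human antibody library on the peptide gave the parent. AAYL50 was designed without a model: most single CDR substitutions and a random sample of double and triple ones. AlphaSeq pools MATa yeast showing the antibodies with MATalpha yeast showing the peptide. Binding brings cells together so that they mate, and sequencing counts the barcode pairs among the diploids. The ratio of observed to expected reads was calibrated, replicate by replicate, on BCL2-family standards whose Kd was known from biolayer interferometry. There are three technical replicates.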

The parent's light chain CDRs are KSSQSVLYESRNKNSVA, WASTRES, QQYHRLPLS; each variant's own CDRs replace them letter for letter.
Values are log10 of the apparent Kd in nM; lower means stronger binding.
The mean shown is taken over the replicates in which the pair was detected.
"ND" marks a missing value. The strain was present, yet no cells mated with the target were sequenced in that replicate, which points to weak or no binding.
Empty control strains, which show no peptide, gave a signal in 18% of pairings with library AAYL50; the median was 4.19 and 95% of these signals were weaker than 2.99. No background was subtracted. The control count says in how many pairings with the empty strains this scFv gave a signal, with their mean in brackets.
Parent in this assay: reference entry 0.65, copy in this library 1.68.

| CDR-L1 | CDR-L2 | CDR-L3 | replicates, log10 nM | mean, log10 nM | control signals |
|---|---|---|---|---|---|
| KSNQSVLYETRNKNSMA | WASTRES | QQYHRLPLS | ND / 1.33 / 1.92 | 1.62 | 0 of 9 |
| DSSQSVLYESRNKNSVA | WASTRES | QDYHRLRLS | 2.15 / 2.19 / 2.77 | 2.37 | 1 of 9 (2.40) |
| KSSQSVLYESRNKNKVA | WASTRES | QQYHRLFLT | ND / ND / ND | ND | 3 of 9 (4.26) |
| KSSQSVLYESRNKNSVA | WQSTRES | QPYHRLPLS | 2.87 / 2.54 / 2.69 | 2.70 | 4 of 9 (4.33) |
| KSSQGVLYESRNKNSVA | WASTRES | QQYHRLPLS | 1.00 / 1.22 / 1.23 | 1.15 | 3 of 9 (4.18) |
| KSSQSVLYDSRNKNFVA | PASTRES | QQYHRLPLS | ND / ND / ND | ND | 2 of 9 (3.21) |
| KMSQSVLYESRNKNSVA | WASTRES | YQYHRLPLS | 0.72 / 0.89 / 1.17 | 0.93 | 0 of 9 |
| KSSQSVLYESNRKNSVA | WASTRES | QQYHRLPLI | 0.97 / 0.84 / 1.05 | 0.95 | 0 of 9 |
| KSSQSTLYESRNKNSVA | WADTRES | QQYPRLPLS | 1.36 / 1.60 / 2.01 | 1.66 | 7 of 9 (4.05) |
| KSSQSVLYESRNKNSVA | WAEMRES | QQQHRLPLS | 1.21 / 1.72 / 1.90 | 1.61 | 0 of 9 |
| KSSQSALYESRNKTSVA | LASTRES | QQYHRLPLS | ND / 3.25 / ND | 3.25 | 1 of 9 (3.92) |
| KSSQSVLSESRWKNSVA | WASTMES | QQYHRLPLS | 2.43 / 1.89 / 1.99 | 2.10 | 2 of 9 (3.59) |
| KSSQMVLYESGNKNSVA | WDSTRES | QQYHRLPLS | 1.24 / 1.33 / 1.64 | 1.40 | 5 of 9 (4.65) |
| KSSQSVLYESRNCNSVK | WASTRES | QQYHRLPRS | ND / 3.73 / 4.93 | 4.33 | 1 of 9 (4.08) |
| KSSQSVLYESRNINSVA | WADTRES | QQYHCLPLS | 2.90 / 2.32 / 2.97 | 2.73 | 2 of 9 (3.90) |
| KSAQSVLYESRNKNSVA | WASTRES | QQYIRTPLS | 6.21 / 3.91 / ND | 5.06 | 4 of 9 (5.20) |
| KSSQSVLYESRNKNFVA | WASTRDS | QQYHRLPLS | 3.68 / ND / ND | 3.68 | 3 of 9 (4.28) |
| KSSQSVLYESRNKNSPA | WASTRES | QQYHRRPLS | ND / ND / 3.77 | 3.77 | 3 of 9 (4.31) |
| KSSQSVHYESRNKNSVA | WWSTRES | QWYHRLPLS | ND / ND / ND | ND | 0 of 9 |
| KSSQSVLYCSRNKNSVA | WASTREC | QQYHRMPLS | ND / 3.41 / 4.06 | 3.73 | 1 of 9 (4.22) |
| KSSSSVLYESRNKNSVK | WISTRES | QQYHRLPLS | ND / ND / ND | ND | 6 of 9 (4.41) |
| KSSQSVLYESYNKNSVA | WASTRES | QQYHRLPLW | 1.72 / 1.73 / 2.10 | 1.85 | 6 of 9 (4.89) |
| KSSQSVLYESRNKASVA | WASTREH | QQYHRLPLR | 2.32 / 2.15 / 2.37 | 2.28 | 1 of 9 (3.52) |
| KSSQSVLYISRPKNLVA | WASTRES | QQYHRLPLS | 4.07 / 3.93 / 4.85 | 4.28 | 4 of 9 (3.64) |
| KSSNSVLYESRNKTRVA | WASTRES | QQYHRLPLS | 6.36 / 4.51 / 5.49 | 5.45 | 5 of 9 (4.72) |
| KSSQSVLYCSRNKNSVW | WASTRES | QQCHRLPLS | ND / ND / 4.82 | 4.82 | 2 of 9 (3.67) |
| KSSQSVLDESRNKNSDA | WSSTRES | QQYHRLPLS | ND / ND / ND | ND | 1 of 9 (3.63) |
| KSTQSVLYESRNKNSVA | WASTRES | KQYQRLPLS | 1.55 / 1.77 / 1.63 | 1.65 | 2 of 9 (4.47) |
| KSSQSFLYESFNKNSVA | WASTRES | QQYHRLPQS | 4.54 / ND / ND | 4.54 | 4 of 9 (4.20) |
| KSSQSVLYEQRNKNSVA | WAQTRES | QQYHRLPLS | 1.60 / 1.80 / 1.38 | 1.60 | 1 of 9 (5.11) |
| KSSQSVLYESRDKNSVA | WPSTRES | QQYHRLPPS | 5.28 / ND / ND | 5.28 | 1 of 9 (4.18) |
| KSSQSVLYESRNKNDVA | WESTRES | QQYHRLPLS | ND / 5.26 / 5.12 | 5.19 | 3 of 9 (4.21) |
| KSSQSVLSEGRNKNSVA | WASTRES | QQYHRLPLR | 1.45 / 1.85 / 1.86 | 1.72 | 1 of 9 (3.08) |

The 5 strongest on average among those seen in every replicate, once more:

| CDR-L1 | CDR-L2 | CDR-L3 | replicates, log10 nM | mean, log10 nM | control signals |
|---|---|---|---|---|---|
| KMSQSVLYESRNKNSVA | WASTRES | YQYHRLPLS | 0.72 / 0.89 / 1.17 | 0.93 | 0 of 9 |
| KSSQSVLYESNRKNSVA | WASTRES | QQYHRLPLI | 0.97 / 0.84 / 1.05 | 0.95 | 0 of 9 |
| KSSQGVLYESRNKNSVA | WASTRES | QQYHRLPLS | 1.00 / 1.22 / 1.23 | 1.15 | 3 of 9 (4.18) |
| KSSQMVLYESGNKNSVA | WDSTRES | QQYHRLPLS | 1.24 / 1.33 / 1.64 | 1.40 | 5 of 9 (4.65) |
| KSSQSVLYEQRNKNSVA | WAQTRES | QQYHRLPLS | 1.60 / 1.80 / 1.38 | 1.60 | 1 of 9 (5.11) |